Data published in article PMC6553708 (PLoS ONE, 2019).
Several values for one entry are separate records, joined by “and”; a condition that tells them apart may be missing. Identical values can stand only once.

Chains of the proteins cited; added tags and fusions are not shown. Lines headed by an entry give the natural chain unless they say otherwise; changes in a name come on top.
UniProt P35372, whole entry: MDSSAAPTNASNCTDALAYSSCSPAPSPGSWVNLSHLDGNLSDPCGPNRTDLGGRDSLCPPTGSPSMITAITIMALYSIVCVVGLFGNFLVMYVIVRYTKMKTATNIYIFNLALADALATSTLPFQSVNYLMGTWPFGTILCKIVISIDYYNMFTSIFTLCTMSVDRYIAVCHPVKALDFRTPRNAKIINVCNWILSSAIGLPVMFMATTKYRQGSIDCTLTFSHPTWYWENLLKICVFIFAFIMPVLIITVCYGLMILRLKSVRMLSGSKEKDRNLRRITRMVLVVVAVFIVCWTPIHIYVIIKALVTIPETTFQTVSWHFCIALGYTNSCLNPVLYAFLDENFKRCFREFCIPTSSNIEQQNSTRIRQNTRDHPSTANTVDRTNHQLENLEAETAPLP
UniProt P41145: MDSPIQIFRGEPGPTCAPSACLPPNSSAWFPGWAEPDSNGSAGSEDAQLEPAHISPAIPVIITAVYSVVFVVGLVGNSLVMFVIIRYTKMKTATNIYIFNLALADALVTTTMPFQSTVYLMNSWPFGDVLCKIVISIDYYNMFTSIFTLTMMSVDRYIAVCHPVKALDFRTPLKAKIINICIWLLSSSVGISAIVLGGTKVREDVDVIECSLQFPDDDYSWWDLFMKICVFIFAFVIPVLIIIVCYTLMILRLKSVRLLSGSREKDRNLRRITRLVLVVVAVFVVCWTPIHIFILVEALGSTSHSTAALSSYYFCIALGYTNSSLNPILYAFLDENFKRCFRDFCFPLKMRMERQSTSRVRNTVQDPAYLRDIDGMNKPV

Key:
[1] = biological target: T1, Mu Opioid Receptor (MOR) (Homo sapiens, UniProt P35372); settings: read-out: Target Binding Affinity Determined by Competition Radioligand Binding–KI, MOR
[2] = biological target: T1, Mu Opioid Receptor (MOR)
[3] = biological target: T2, Kappa Opioid Receptor (KOR) (Homo sapiens, UniProt P41145)
[4] = biological target: T2, Kappa Opioid Receptor (KOR); experiment: biochemical; settings: KOR EC50 (35S-GTPγS)
[5] = biological target: T2, Kappa Opioid Receptor (KOR); type: biochemical; design: membranes used
[6] = system: MOR; settings: cited from earlier work

CN(C)C[C@H]1CCCC[C@]1(O)c1cccc(O)c1
Ki [1]: 1300 ± 290 nM
MOR EMAX (35S-GTPγS) [2]: 97 ± 2%
EC50 ([2]; read-out: MOR EC50 (35S-GTPγS)): 360 ± 110 nM

COc1ccc2c3c1O[C@H]1C(=O)CC[C@H]4[C@@H](C2)N(C)CC[C@]314 [Hydrocodone]
Potential new finding: activity at KOR (in words) [3]: KOR partial agonist; CB1 partial agonist; σ1R binding
EC50 [4]: 236 nM and 240 nM
KOR antagonist activity (in words) [5]: no KOR antagonist activity

CCC(=O)C(CC(C)N(C)C)(c1ccccc1)c1ccccc1 (stereo not shown) [methadone]
operational efficacy τ in vitro [6]: 18.2
